The record followed here is patent EP4342890A1, “PLATFORM AND SCAFFOLD FOR FAP TARGETING AGENTS” (Erasmus University Rotterdam Medical Center, priority 2022, dated 2024).

This test concerns the target T1, FAP (Homo sapiens, UniProt Q12884).
T1 sequence (Q12884 1-760): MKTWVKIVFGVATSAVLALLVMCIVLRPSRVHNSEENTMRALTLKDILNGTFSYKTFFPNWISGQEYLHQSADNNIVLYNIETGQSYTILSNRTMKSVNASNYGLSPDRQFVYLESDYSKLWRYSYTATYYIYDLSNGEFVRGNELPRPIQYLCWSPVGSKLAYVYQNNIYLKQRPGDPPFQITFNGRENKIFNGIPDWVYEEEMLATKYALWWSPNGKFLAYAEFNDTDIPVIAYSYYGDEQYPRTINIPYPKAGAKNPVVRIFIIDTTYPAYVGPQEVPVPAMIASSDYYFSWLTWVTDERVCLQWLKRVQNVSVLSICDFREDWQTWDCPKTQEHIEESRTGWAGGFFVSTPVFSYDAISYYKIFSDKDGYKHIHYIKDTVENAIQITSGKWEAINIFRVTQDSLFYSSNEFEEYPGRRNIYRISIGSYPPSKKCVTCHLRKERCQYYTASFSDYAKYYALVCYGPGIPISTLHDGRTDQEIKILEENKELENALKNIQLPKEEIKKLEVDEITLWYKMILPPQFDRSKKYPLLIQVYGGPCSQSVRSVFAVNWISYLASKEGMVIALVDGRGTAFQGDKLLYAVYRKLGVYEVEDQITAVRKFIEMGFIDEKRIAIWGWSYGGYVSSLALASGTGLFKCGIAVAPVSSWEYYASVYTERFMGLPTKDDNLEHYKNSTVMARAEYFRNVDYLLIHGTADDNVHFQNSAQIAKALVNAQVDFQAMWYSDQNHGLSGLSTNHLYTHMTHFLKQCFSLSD
As to the kind of experiment: In vitro inhibition assay on human FAP (Z-GP-AMC substrate). The following applies: enzymatic assay; 20 µM Z-GP-AMC, 20 nM FAP; unit inferred. Format: biochemical. The protocol:
Enzymatic activity of human FAP (hFAP) and mouse FAP (mFAP) on the Z-GP-AMC substrate was measured at room temperature on a Hidex microplate reader by monitoring the fluorescence at an excitation wavelength of 360 nm and an emission wavelength of 465 nm. The reaction mixture contained 20 µM substrate, 20 nM FAP, assay buffer (50 mM Tris, 100 mM NaCl, 1 mM EDTA, pH 7.4) and tested compound (serial dilution from 10^-6 to 10^-12) in a total volume of 50 µL. The IC50 value is defined as the concentration of inhibitor required to reduce the enzyme activity by 50% after addition of the substrate.

A word on the IC50: it is the concentration that gives 50% inhibition. For the compound “1-(6-((3-((4-((2-((S)-2-Cyano-4,4-difluoropyrrolidin-1-yl)-2-oxoethyl)carbamoyl)quinolin-8-yl)oxy)propyl)amino)-6-oxohexyl)-3,3-dimethyl-5-sulfo-2-((1E,3E)-5-((E)-1,3,3-trimethyl-5-sulfoindolin-2-ylidene)penta-1,3-dien-1-yl)-3H-indol-1-ium [eFAP-7]”, the IC50 was found to be 2.1 ± 0.6 nM.

`N#C[C@@H]1CC(F)(F)CN1C(=O)CNC(=O)c1ccnc2c(OCCCNC(=O)CN3CCC(NC(=O)CN4CCN(CC(=O)O)CCN(CC(=O)O)CCN(CC(=O)O)CC4)CC3)cccc12` [eFAP-10, (S)-2,2',2"-(10-(2-((1-(2-((3-((4-((2-(2-Cyano-4,4-difluoropyrrolidin-1-yl)-2-oxoethyl)carbamoyl)quinolin-8-yl)oxy)propyl)amino)-2-oxoethyl)piperidin-4-yl)amino)-2-oxoethyl)-1,4,7,10-tetraazacyclododecane-1,4,7-triyl)triacetic acid] registered an IC50 of 2.1 ± 0.3 nM. `N#C[C@@H]1CC(F)(F)CN1C(=O)CNC(=O)c1ccnc2c(OCCCNC(=O)CN3CCN(C(=O)CN4CCN(CC(=O)O)CCN(CC(=O)O)CCN(CC(=O)O)CC4)CC3)cccc12` [eFAP-12, (S)-2,2',2"-(10-(2-(4-(2-((3-((4-((2-(2-Cyano-4,4-difluoropyrrolidin-l-yl)-2-oxoethyl)carbamoyl)quinolin-8-yl)oxy)propyl)amino)-2-oxoethyl)piperazin-1-yl)-2-oxoethyl)-1,4,7,10-tetraazacyclododecane-1,4,7-triyl)triacetic acid]: the IC50 stood at 2.1 ± 0.7 nM.
